The numbers were not newly measured in PMC3338918, which cites them from elsewhere.

Amino acid sequences for entries named in this document (tags omitted).
UniProt P15692, whole entry: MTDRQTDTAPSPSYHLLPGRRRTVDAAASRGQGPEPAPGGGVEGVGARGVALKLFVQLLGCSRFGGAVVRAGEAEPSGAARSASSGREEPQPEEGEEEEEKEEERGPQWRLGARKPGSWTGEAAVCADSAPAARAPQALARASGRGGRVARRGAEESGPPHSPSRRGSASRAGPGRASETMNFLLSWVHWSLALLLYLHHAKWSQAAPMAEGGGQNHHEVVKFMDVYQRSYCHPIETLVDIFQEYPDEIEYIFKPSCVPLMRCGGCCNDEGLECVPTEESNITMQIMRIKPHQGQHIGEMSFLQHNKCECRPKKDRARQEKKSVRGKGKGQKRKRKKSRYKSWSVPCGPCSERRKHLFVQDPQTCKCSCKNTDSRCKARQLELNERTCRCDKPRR

The target of the series is VEGF-A (Homo sapiens) (UniProt P15692). Put plainly: SPR. To be noted: cited from earlier work.

Where only a bound is given, the exact number is not on record here.

For ranibizumab Fab, the Kd (commonly the constant that tells how readily two partners part at equilibrium) was less than 0.14 nM.
